The values that follow are results of earlier work, collected in patent publication US11026910B2, “α- and γ-truxillic acid derivatives and pharmaceutical compositions thereof” (The Research Foundation for The State University of New York, priority 2012, dated 2021).

Protein sequences, listed by entry. Tags and fused reporters are not part of them. Residues count along the entry.
UniProt Q01469, 2-135 limits assumed: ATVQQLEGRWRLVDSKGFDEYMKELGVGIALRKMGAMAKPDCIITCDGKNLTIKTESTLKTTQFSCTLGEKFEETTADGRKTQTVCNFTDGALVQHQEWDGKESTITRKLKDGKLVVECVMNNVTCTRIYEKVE

Structures are written as SMILES.

In the data set the target is FABP5 (Homo sapiens, UniProt Q01469). The settings on record: read-out: Ki against FABP5 (1,8-ANS displacement); McDonnell 2006; target of the acid and keto acid derivatives not given, FABP5 assumed; cited from earlier work.

For `O=C(O)C(=O)c1cccc(OCc2ccccc2Cl)c1OCc1ccccc1Cl`, the inhibition constant Ki was below 2 nM.

One may read the Ki as a dissociation constant, usually derived from enzyme kinetics or from competition with a known ligand.
